# Measured logP (octanol/water) values of organic chemicals

Source: data files of OPERA 2.9 (Mansouri et al.), github.com/kmansouri/OPERA.

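The numbers are reported measurements, compiled and curated for the OPERA QSAR suite. The files give a single number for a compound and property, which may rest on several reports. Method and conditions are not stated for these values. The measured form (salt, isomer or mixture) is not always the one drawn. Some entries may be limits or estimates that an upstream database listed as plain numbers.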

logP is the log10 of the octanol-water partition coefficient; higher is more lipophilic.

log Kow	SMILES
-1.35	Cl.Nc1ccc(CCNCC(O)c2ccccc2)cc1 (centres undefined)
-0.74	CCc1cc(S(=O)(=O)[O-])c2cc(C(C)C)cccc1-2.[Na+]
6.26	Clc1cc(Cl)c(Cl)c(-c2cccc(Cl)c2Cl)c1
0.08	CCCOCCO
1.205	C[Si](C)(C)N[Si](C)(C)C
4.5	C[C@@H](O[C@H]1OCCN(Cc2nc(=O)[nH][nH]2)[C@H]1c1ccc(F)cc1)c1cc(C(F)(F)F)cc(C(F)(F)F)c1
-0.87	O=c1nc(O)ccn1[C@@H]1O[C@H](CO)C[C@@H]1F
0.2	CCCCC1=NC2(CCCC2)C(=O)N1.Cl
-1.3	NCCS(=O)(=O)O
-2.8	Oc1cc(O)ncn1
-3.9	Br.C[N+](C)(C)CCOC(=N)[O-]
-2.48	CC(C)COC(=S)[S-].[Na+]
1.91	O=[N+]([O-])c1cc(Cl)cc(Cl)c1O
0.81	O=S(=O)(O)c1cccc2cc(Nc3ccccc3)cc(Nc3ccccc3)c12
6.58	CCCCCCC=CCCCCCCCC(=O)O
5.87	CCCCn1c(O)c(N=Nc2ccc(C(=O)OCc3ccccc3)cc2)c(C)c(C#N)c1=O
2.9	Cc1ccccc1NC(=N)Nc1ccccc1C
1.5	CCS
-2.934	O=C1c2ccccc2C(=O)N1CCS(=O)(=O)O.[K+]
-0.62	Cc1[nH]cnc1CO
4.2	O=C(O)CCCCCCCCCCCCC(=O)O
2.8	Br.Nc1c(Br)cc(Br)cc1CN[C@H]1CC[C@H](O)CC1
7.41	CC1=C(/C=C/C(C)=C/C=C/C(C)=C/CO)C(C)(C)CC=C1
1.9	COc1ccc(CCC(=O)O)cc1
1.76	CCN[P+]([O-])(OCC)O/N=C(/C#N)c1ccc([N+](=O)[O-])cc1 (stereo partly drawn)
6.71	Clc1cc(Cl)c(Cl)c(-c2ccc(Cl)c(Cl)c2)c1
3.4	COc1ccc(C(=O)Nc2ccc(C3=NNC(=O)CC3C)cc2[N+](=O)[O-])cc1 (centres undefined)
2.3	CCCCc1nc(Cl)c(CO)n1Cc1ccc(-c2ccccc2-c2nnn[nH]2)cc1
2.7	C=C(Br)C(F)(F)F
-0.53	CCN(C(=O)c1ccccc1)c1ccc(/N=N/c2cc(S(=O)(=O)[O-])c3ccccc3c2O)c(C)c1.[Na+]
-2.25	CC(=O)[O-].CCn1cc[n+](C)c1
2.19	CN(C)C(=O)Nc1cccc(Br)c1
3.518	Brc1ccc(OCC2CO2)c(Br)c1 (centres undefined)
0.291	OCC1CCCO1 (centres undefined)
5.5	CCCCCCC(CO)CCCC (centres undefined)
3.05	Nc1n[nH]c(-c2ccnc(NCCCc3ccccc3)c2)n1
3.57	CCCCCCCCCN
4.6	CC(C)OC(=O)CCC/C=C\C[C@@H]1[C@@H](/C=C/[C@@H](O)COc2cccc(C(F)(F)F)c2)[C@H](O)C[C@@H]1O
-0.52	N=c1nc2c(ncn2C2CC(O)C(CO)O2)c(N)[nH]1 (centres undefined)
0.91	O=C=Nc1cccc2c(N=C=O)cccc12
0.88	CCC(CO)(CO)COCC(CC)(CO)CO
1.773	Cc1cc(N)n(-c2ccccc2)n1
1.88	CCc1cccc(N)c1
-1.43	CC1=NN(c2cccc(S(=O)(=O)[O-])c2)C(=O)C1/N=N/c1cc(Cl)c(C)cc1S(=O)(=O)[O-].[NH4+].[NH4+].[NH4+].[NH4+] (stereo partly drawn)
-0.23	Cc1cc([NH-])c([NH-])cc1C.[Cl-].[Cl-].[Pt+4]

Again, the 4 entries with the lowest log Kow:

SMILES	log Kow
Br.C[N+](C)(C)CCOC(=N)[O-]	-3.9
O=C1c2ccccc2C(=O)N1CCS(=O)(=O)O.[K+]	-2.934
Oc1cc(O)ncn1	-2.8
CC(C)COC(=S)[S-].[Na+]	-2.48